Data taken from PMC9569420 (Communications Biology, 2022).

Amino acid sequences for entries named in this document (tags omitted). A change or cut given only in a name is not applied to a line headed by its entry. Residues count along the entry.
UniProt Q9HBH9: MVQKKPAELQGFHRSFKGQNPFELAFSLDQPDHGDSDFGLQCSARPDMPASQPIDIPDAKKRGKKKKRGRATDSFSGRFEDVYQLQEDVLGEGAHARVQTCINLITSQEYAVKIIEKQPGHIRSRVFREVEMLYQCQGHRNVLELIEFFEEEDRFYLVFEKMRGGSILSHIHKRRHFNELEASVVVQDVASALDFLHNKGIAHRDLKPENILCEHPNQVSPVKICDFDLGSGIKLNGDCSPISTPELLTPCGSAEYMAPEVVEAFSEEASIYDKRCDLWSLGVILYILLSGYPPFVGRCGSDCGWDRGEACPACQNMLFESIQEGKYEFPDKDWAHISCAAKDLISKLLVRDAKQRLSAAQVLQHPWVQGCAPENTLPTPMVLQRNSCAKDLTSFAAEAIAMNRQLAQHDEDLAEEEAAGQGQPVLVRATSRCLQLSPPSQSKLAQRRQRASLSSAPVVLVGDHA
UniProt O14578, whole entry: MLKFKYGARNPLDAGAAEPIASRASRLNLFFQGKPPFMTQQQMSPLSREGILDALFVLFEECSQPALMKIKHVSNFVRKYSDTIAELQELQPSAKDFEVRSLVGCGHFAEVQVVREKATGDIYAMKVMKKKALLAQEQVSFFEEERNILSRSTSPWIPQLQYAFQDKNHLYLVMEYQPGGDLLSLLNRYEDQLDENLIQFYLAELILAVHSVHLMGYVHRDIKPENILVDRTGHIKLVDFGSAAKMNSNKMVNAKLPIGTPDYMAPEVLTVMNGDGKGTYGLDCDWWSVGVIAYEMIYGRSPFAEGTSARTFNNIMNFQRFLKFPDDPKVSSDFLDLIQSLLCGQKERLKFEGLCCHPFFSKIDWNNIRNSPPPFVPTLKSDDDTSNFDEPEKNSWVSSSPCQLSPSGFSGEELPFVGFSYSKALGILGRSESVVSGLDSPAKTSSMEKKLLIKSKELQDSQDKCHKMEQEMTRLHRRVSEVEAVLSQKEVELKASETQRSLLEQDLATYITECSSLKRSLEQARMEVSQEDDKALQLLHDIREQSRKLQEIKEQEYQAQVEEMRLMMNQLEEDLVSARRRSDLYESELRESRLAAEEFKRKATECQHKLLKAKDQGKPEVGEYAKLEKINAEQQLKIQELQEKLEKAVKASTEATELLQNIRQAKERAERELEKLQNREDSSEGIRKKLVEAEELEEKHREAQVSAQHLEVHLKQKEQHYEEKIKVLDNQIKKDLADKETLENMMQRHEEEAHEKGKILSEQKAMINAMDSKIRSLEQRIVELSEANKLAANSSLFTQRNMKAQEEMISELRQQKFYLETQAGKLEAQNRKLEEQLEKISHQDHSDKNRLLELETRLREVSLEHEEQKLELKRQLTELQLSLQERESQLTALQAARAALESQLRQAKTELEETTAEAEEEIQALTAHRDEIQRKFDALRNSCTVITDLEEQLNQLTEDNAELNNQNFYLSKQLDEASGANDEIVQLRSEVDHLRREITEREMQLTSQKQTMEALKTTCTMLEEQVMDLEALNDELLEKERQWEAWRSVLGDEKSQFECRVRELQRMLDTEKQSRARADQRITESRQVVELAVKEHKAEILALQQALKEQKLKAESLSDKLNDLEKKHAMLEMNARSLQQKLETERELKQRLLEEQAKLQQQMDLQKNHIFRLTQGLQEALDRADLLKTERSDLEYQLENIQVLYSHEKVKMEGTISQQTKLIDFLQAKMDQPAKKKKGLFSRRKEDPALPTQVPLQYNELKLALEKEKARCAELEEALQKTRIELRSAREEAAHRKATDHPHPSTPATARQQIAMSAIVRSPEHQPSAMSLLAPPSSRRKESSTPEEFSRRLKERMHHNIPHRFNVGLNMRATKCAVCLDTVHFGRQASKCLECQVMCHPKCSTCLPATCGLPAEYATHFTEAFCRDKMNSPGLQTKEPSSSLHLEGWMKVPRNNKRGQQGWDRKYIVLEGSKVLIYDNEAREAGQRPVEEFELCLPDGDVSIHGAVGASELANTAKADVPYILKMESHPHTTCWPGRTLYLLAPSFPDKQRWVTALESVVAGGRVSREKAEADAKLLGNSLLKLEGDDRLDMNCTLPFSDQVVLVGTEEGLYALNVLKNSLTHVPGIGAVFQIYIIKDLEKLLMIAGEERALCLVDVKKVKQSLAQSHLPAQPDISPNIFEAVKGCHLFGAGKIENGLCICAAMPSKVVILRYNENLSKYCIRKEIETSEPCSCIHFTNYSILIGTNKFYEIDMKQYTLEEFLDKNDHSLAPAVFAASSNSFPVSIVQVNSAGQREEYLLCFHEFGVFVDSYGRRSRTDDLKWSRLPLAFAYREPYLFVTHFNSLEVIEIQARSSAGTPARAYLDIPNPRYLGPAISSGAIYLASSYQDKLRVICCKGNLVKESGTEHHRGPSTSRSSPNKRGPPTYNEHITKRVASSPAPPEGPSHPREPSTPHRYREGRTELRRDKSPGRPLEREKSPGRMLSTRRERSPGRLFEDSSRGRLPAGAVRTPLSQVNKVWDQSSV
UniProt P49840: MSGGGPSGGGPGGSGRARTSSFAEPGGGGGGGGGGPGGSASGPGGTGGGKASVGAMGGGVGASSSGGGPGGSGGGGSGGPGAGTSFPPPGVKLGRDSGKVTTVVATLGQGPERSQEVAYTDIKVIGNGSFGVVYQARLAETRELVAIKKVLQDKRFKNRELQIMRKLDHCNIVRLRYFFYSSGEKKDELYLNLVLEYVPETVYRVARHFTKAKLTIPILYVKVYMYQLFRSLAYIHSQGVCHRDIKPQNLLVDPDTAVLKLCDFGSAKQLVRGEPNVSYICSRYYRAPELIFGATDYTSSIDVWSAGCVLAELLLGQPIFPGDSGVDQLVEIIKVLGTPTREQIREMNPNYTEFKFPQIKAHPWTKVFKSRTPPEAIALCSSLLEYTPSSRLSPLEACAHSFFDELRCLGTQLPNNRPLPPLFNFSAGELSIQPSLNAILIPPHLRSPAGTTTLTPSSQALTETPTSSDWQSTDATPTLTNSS
UniProt P21802, 22-821: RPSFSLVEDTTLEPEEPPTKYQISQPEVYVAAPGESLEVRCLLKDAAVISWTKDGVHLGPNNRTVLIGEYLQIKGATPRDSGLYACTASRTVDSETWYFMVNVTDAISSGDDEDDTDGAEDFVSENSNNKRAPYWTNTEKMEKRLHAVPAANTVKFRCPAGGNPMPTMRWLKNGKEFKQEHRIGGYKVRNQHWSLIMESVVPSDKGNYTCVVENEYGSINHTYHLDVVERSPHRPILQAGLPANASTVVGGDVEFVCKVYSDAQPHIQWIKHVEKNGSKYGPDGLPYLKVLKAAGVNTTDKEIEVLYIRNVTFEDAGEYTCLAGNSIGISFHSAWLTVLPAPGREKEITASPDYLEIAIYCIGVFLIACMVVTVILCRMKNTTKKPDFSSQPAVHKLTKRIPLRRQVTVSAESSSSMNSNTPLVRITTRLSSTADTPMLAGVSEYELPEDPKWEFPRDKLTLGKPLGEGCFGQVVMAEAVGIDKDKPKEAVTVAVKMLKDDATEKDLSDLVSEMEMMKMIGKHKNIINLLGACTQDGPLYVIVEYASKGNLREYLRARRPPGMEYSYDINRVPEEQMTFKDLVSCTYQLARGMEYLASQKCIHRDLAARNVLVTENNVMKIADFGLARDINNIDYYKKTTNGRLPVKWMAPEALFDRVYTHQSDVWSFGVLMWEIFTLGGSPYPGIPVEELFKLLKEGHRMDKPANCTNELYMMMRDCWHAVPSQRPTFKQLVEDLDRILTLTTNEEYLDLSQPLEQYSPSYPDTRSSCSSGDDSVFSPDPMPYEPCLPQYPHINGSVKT
UniProt Q6P2M8: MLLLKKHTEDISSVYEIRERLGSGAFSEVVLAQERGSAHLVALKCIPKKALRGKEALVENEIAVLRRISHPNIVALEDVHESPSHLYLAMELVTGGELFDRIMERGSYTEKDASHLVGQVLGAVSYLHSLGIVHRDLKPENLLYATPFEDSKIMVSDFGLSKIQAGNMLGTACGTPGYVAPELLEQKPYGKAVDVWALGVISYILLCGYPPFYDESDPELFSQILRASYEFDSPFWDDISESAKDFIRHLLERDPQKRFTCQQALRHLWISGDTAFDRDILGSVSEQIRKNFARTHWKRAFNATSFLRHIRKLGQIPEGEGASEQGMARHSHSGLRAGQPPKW
UniProt P48729: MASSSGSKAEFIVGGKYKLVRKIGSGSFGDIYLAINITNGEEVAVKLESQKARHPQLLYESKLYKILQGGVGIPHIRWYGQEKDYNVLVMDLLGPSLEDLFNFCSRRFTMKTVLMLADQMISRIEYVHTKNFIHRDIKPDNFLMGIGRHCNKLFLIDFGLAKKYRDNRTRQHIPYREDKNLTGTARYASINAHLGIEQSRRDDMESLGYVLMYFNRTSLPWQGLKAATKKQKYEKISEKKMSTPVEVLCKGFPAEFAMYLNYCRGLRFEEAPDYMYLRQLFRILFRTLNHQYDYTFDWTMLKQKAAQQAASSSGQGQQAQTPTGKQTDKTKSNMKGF
UniProt P51817: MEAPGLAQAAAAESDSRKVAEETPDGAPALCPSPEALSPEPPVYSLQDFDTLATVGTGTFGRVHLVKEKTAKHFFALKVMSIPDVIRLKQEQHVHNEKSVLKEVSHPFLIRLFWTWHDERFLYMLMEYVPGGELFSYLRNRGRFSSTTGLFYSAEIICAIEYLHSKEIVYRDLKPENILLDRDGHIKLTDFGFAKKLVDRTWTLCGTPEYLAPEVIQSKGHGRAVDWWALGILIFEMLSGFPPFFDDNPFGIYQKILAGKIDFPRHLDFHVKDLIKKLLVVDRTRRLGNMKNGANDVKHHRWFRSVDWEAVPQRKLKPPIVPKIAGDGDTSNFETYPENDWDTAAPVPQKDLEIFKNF
UniProt P30291: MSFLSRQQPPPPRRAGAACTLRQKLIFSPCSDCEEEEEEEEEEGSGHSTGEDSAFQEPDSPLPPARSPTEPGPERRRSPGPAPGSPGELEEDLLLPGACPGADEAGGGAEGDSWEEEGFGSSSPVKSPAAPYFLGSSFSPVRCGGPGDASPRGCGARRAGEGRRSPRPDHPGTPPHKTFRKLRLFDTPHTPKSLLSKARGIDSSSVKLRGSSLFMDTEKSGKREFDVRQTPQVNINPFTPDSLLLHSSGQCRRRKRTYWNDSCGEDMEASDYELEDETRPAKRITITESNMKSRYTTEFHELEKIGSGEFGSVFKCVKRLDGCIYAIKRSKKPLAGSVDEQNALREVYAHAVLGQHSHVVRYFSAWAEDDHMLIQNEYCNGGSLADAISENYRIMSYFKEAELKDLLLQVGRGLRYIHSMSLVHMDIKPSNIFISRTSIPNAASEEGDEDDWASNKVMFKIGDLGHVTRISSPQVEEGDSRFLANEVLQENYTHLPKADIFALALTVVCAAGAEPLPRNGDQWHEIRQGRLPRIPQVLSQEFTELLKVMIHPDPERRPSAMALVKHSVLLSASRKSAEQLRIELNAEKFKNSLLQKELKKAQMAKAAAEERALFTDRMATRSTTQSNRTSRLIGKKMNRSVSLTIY
UniProt P52564: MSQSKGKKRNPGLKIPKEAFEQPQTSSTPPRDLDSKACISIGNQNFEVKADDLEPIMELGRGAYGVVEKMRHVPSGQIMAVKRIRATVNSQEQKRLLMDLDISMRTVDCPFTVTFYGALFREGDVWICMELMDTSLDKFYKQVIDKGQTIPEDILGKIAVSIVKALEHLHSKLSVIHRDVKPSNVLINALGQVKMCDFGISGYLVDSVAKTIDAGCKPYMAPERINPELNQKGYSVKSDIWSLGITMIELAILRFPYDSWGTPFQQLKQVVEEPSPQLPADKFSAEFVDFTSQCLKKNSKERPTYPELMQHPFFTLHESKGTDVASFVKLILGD
UniProt Q8IU85: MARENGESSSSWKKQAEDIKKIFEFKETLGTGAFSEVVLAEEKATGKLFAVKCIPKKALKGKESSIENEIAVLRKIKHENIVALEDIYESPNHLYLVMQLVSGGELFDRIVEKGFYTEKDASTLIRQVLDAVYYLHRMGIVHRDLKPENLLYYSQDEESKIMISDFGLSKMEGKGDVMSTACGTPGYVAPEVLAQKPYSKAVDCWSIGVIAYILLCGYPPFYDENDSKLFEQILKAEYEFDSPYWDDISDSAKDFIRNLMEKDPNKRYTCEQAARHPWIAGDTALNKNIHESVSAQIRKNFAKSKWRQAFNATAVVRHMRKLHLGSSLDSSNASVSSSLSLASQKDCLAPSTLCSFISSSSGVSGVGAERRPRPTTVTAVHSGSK
UniProt O43318, 1-303 limits assumed: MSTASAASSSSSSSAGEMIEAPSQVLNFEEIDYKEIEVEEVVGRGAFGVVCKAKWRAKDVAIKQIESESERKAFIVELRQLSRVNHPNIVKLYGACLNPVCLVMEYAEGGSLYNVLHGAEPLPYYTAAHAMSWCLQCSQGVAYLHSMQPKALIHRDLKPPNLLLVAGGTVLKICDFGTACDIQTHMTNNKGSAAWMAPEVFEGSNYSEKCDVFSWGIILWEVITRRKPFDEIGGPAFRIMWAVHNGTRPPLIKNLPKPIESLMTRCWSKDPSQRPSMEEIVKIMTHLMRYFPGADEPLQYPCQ

Columns and labels:
[1] = target: T1, CDK14/cyclin Y (PFTK1) (Homo sapiens, UniProt O94921); assay: HotSpot kinase assay; type: biochemical; conditions: 10µM
T1 construct: purchased Reaction Biology Corporation

[2] = target: T2, PKCtheta (Homo sapiens, UniProt Q04759); assay: HotSpot kinase assay; type: biochemical; conditions: 10µM
T2 construct: purchased Reaction Biology Corporation

[3] = target: T3, PKCb2 (Homo sapiens, UniProt P05771); assay: HotSpot kinase assay; type: biochemical; conditions: 10µM
T3 construct: purchased Reaction Biology Corporation

[4] = target: T4, MNK2 (Homo sapiens, UniProt Q9HBH9); assay: HotSpot kinase assay; type: biochemical; conditions: 10µM
T4 construct: purchased Reaction Biology Corporation

[5] = target: T5, IKKe/IKBKE (Homo sapiens, UniProt Q14164); assay: HotSpot kinase assay; type: biochemical; conditions: 10µM
T5 construct: purchased Reaction Biology Corporation

[6] = target: T6, DAPK2 (Homo sapiens, UniProt Q9UIK4); assay: HotSpot kinase assay; type: biochemical; conditions: 10µM
T6 construct: purchased Reaction Biology Corporation

[7] = target: T7, DCAMKL1 (Homo sapiens, UniProt O15075); assay: HotSpot kinase assay; type: biochemical; conditions: 10µM
T7 construct: purchased Reaction Biology Corporation

[8] = system: HSV-2(G); assay: HSV plaque assay, HaCat cells; type: cell-based
[9] = target: T8, MAPKAPK3 (Homo sapiens, UniProt Q16644); assay: HotSpot kinase assay; type: biochemical; conditions: 10µM
T8 construct: purchased Reaction Biology Corporation

[10] = target: T9, P38d/MAPK13 (Homo sapiens, UniProt O15264); assay: HotSpot kinase assay; type: biochemical; conditions: 10µM
T9 construct: purchased Reaction Biology Corporation

[11] = target: T10, PLK4/SAK (Homo sapiens, UniProt O00444); assay: HotSpot kinase assay; type: biochemical; conditions: 10µM
T10 construct: purchased Reaction Biology Corporation

[12] = target: T11, CDK7/cyclin H (Homo sapiens, UniProt P50613); assay: HotSpot kinase assay; type: biochemical; conditions: 10µM
T11 construct: purchased Reaction Biology Corporation

[13] = target: T12, AMPK(A1/B2/G1) (Homo sapiens, UniProt Q13131); assay: HotSpot kinase assay; type: biochemical; conditions: 10µM
T12 construct: purchased Reaction Biology Corporation

[14] = target: T13, STK21/CIT (Homo sapiens, UniProt O14578); assay: HotSpot kinase assay; type: biochemical; conditions: 10µM
T13 construct: purchased Reaction Biology Corporation

[15] = target: T14, CK1g2 (Homo sapiens, UniProt P78368); assay: HotSpot kinase assay; type: biochemical; conditions: 10µM
T14 construct: purchased Reaction Biology Corporation

[16] = target: T15, TSSK3/STK22C (Homo sapiens, UniProt Q96PN8); assay: HotSpot kinase assay; type: biochemical; conditions: 10µM
T15 construct: purchased Reaction Biology Corporation

[17] = target: T16, EPHA1 (Homo sapiens, UniProt P21709); assay: HotSpot kinase assay; type: biochemical; conditions: 10µM
T16 construct: purchased Reaction Biology Corporation

[18] = target: T17, AMPK (A1/B2/G3) (Homo sapiens, UniProt Q13131); assay: HotSpot kinase assay; type: biochemical; conditions: 10µM
T17 construct: purchased Reaction Biology Corporation

[19] = target: T18, GSK3a (Homo sapiens, UniProt P49840); assay: HotSpot kinase assay; type: biochemical; conditions: 10µM
T18 construct: purchased Reaction Biology Corporation

[20] = target: T19, PKG1b (Homo sapiens, UniProt Q13976); assay: HotSpot kinase assay; type: biochemical; conditions: 10µM
T19 construct: purchased Reaction Biology Corporation

[21] = target: T20, MSK2/RPS6KA4 (Homo sapiens, UniProt O75676); assay: HotSpot kinase assay; type: biochemical; conditions: 10µM
T20 construct: purchased Reaction Biology Corporation

[22] = target: T21, TTBK2 (Homo sapiens, UniProt Q6IQ55); assay: HotSpot kinase assay; type: biochemical; conditions: 10µM
T21 construct: purchased Reaction Biology Corporation

[23] = target: T22, BMPR2 (Homo sapiens, UniProt Q13873); assay: HotSpot kinase assay; type: biochemical; conditions: 10µM
T22 construct: purchased Reaction Biology Corporation

[24] = target: T23, YSK4/MAP3K19 (Homo sapiens, UniProt Q56UN5); assay: HotSpot kinase assay; type: biochemical; conditions: 10µM
T23 construct: purchased Reaction Biology Corporation

[25] = target: T24, FGFR2 (Homo sapiens, UniProt P21802); assay: HotSpot kinase assay; type: biochemical; conditions: 10µM
T24 construct: purchased Reaction Biology Corporation

[26] = target: T25, CAMK1b (Homo sapiens, UniProt Q6P2M8); assay: HotSpot kinase assay; type: biochemical; conditions: 10µM
T25 construct: purchased Reaction Biology Corporation

[27] = target: T26, FGFR3 (Homo sapiens, UniProt P22607); assay: HotSpot kinase assay; type: biochemical; conditions: 10µM
T26 construct: purchased Reaction Biology Corporation

[28] = target: T27, KSR2 (Homo sapiens, UniProt Q6VAB6); type: biochemical; conditions: 10µM
T27 construct: purchased Reaction Biology Corporation

[29] = target: T28, BRAF (Homo sapiens, UniProt P15056); assay: HotSpot kinase assay; type: biochemical; conditions: 10µM
T28 construct: purchased Reaction Biology Corporation

[30] = target: T29, MST4 (Homo sapiens, UniProt Q9P289); assay: HotSpot kinase assay; type: biochemical; conditions: 10µM
T29 construct: purchased Reaction Biology Corporation

[31] = target: T30, MYLK3 (Homo sapiens, UniProt Q32MK0); assay: HotSpot kinase assay; type: biochemical; conditions: 10µM
T30 construct: purchased Reaction Biology Corporation

[32] = target: T31, CK1a1 (Homo sapiens, UniProt P48729); assay: HotSpot kinase assay; type: biochemical; conditions: 10µM
T31 construct: purchased Reaction Biology Corporation

[33] = target: T32, PRKX (Homo sapiens, UniProt P51817); assay: HotSpot kinase assay; type: biochemical; conditions: 10µM
T32 construct: purchased Reaction Biology Corporation

[34] = target: T33, EPHA4 (Homo sapiens, UniProt P54764); assay: HotSpot kinase assay; type: biochemical; conditions: 10µM
T33 construct: purchased Reaction Biology Corporation

[35] = target: T34, WEE1 (Homo sapiens, UniProt P30291); assay: HotSpot kinase assay; type: biochemical; conditions: 10µM
T34 construct: purchased Reaction Biology Corporation

[36] = target: T35, MKK6 (Homo sapiens, UniProt P52564); assay: HotSpot kinase assay; type: biochemical; conditions: 10µM
T35 construct: purchased Reaction Biology Corporation

[37] = target: T36, CK1d (Homo sapiens, UniProt P48730); assay: HotSpot kinase assay; type: biochemical; conditions: 10µM
T36 construct: purchased Reaction Biology Corporation

[38] = target: T37, CAMK1d (Homo sapiens, UniProt Q8IU85); assay: HotSpot kinase assay; type: biochemical; conditions: 10µM
T37 construct: purchased Reaction Biology Corporation

[39] = target: T38, CSK (Homo sapiens, UniProt P41240); assay: HotSpot kinase assay; type: biochemical; conditions: 10µM
T38 construct: purchased Reaction Biology Corporation

[40] = target: T39, PDK4/PDHK4 (Homo sapiens, UniProt Q16654); assay: HotSpot kinase assay; type: biochemical; conditions: 10µM
T39 construct: purchased Reaction Biology Corporation

[41] = target: T40, PKN1/PRK1 (Homo sapiens, UniProt Q16512); assay: HotSpot kinase assay; type: biochemical; conditions: 10µM
T40 construct: purchased Reaction Biology Corporation

[42] = target: T41, JNK2 (Homo sapiens, UniProt P45984); assay: HotSpot kinase assay; type: biochemical; conditions: 10µM
T41 construct: purchased Reaction Biology Corporation

[43] = target: T42, TAK1 (Homo sapiens, UniProt O43318); assay: HotSpot kinase assay; type: biochemical; conditions: 10µM
T42 construct: purchased Reaction Biology Corporation

SMILES: CO[C@@H]1[C@H](N(C)C(=O)CCC(=O)NCc2cn(CCCS(=O)(=O)O)nn2)C[C@H]2O[C@]1(C)n1c3ccccc3c3c4c(c5c6ccccc6n2c5c31)C(=O)NC4 [CIMSS]
- % Enzyme Activity (relative to DMSO controls) [1]: 72.89%
- % Enzyme Activity (relative to DMSO controls) [2]: 6.89%
- % Enzyme Activity (relative to DMSO controls) [3]: 1.66%
- % Enzyme Activity (relative to DMSO controls) [4]: 4.76%
- % Enzyme Activity (relative to DMSO controls) [5]: 1.28%
- % Enzyme Activity (relative to DMSO controls) [6]: 10.10%
- % Enzyme Activity (relative to DMSO controls) [7]: 80.77%
- viral plaque numbers relative to the DMSO controls ([8]; dose 0.1, replicates (Fig 3a source data)): 74% and 73.4% and 64% and 57%
- viral plaque numbers relative to the DMSO controls ([8]; dose 1, replicates (Fig 3a source data)): 70% and 69% and 45% and 52%
- viral plaque numbers relative to the DMSO controls ([8]; dose 10, replicates (Fig 3a source data)): 26.8% and 30.9% and 10% and 14.36%
- viral plaque numbers relative to the DMSO controls ([8]; dose 50, replicates (Fig 3a source data)): 30.9% and 30.2% and 14% and 25%
- % Enzyme Activity (relative to DMSO controls) [9]: 85.18%
- % Enzyme Activity (relative to DMSO controls) [10]: 69.92%
- % Enzyme Activity (relative to DMSO controls) [11]: 6.38%
- % Enzyme Activity (relative to DMSO controls) [12]: 65.37%
- % Enzyme Activity (relative to DMSO controls) [13]: 0.57%
- % Enzyme Activity (relative to DMSO controls) [14]: 81.15%
- % Enzyme Activity (relative to DMSO controls) [15]: 93.32%
- % Enzyme Activity (relative to DMSO controls) [16]: 61.46%
- % Enzyme Activity (relative to DMSO controls) [17]: 30.84%
- % Enzyme Activity (relative to DMSO controls) [18]: 1.09%
- % Enzyme Activity (relative to DMSO controls) [19]: 2.26%
- % Enzyme Activity (relative to DMSO controls) [20]: 12.45%
- % Enzyme Activity (relative to DMSO controls) [21]: 1.99%
- % Enzyme Activity (relative to DMSO controls) [22]: 94.91%
- % Enzyme Activity (relative to DMSO controls) [23]: 49.89%
- % Enzyme Activity (relative to DMSO controls) [24]: 3.38%
- % Enzyme Activity (relative to DMSO controls) [25]: 2.54%
- % Enzyme Activity (relative to DMSO controls) [26]: 57.60%
- % Enzyme Activity (relative to DMSO controls) [27]: 4.46%
- % Enzyme Activity (relative to DMSO controls) [28]: 107.01%
- % Enzyme Activity (relative to DMSO controls) [29]: 131.61%
- % Enzyme Activity (relative to DMSO controls) [30]: 1.22%
- % Enzyme Activity (relative to DMSO controls) [31]: 64.65%
- % Enzyme Activity (relative to DMSO controls) [32]: 97.55%
- % Enzyme Activity (relative to DMSO controls) [33]: 9.38%
- % Enzyme Activity (relative to DMSO controls) [34]: 28.44%
- % Enzyme Activity (relative to DMSO controls) [35]: 43.28%
- % Enzyme Activity (relative to DMSO controls) [36]: 57.24%
- % Enzyme Activity (relative to DMSO controls) [37]: 100.57%
- % Enzyme Activity (relative to DMSO controls) [38]: 19.69%
- % Enzyme Activity (relative to DMSO controls) [39]: 2.95%
- % Enzyme Activity (relative to DMSO controls) [40]: 92.98%
- % Enzyme Activity (relative to DMSO controls) [41]: 2.15%
- % Enzyme Activity (relative to DMSO controls) [42]: 41.78%
- % Enzyme Activity (relative to DMSO controls) [43]: 6.81%

Several values for one entry are separate records, joined by “and”; a condition that tells them apart may be missing. Identical values can stand only once.
